Test system: human peripheral blood monocytes
Test: FACS analysis of cell surface markers on cultured peripheral blood monocytes
Type: cell-based
Conditions: added to calcium ionophore treatment

rhIL-2: recombinant human IL-2 was tested, and the “effect of agent on ionophore-induced activated myeloid dendritic cell phenotype” value was “enhanced CD14 downregulation and upregulation of costimulatory, MHC, and other molecule expression”.
